Reference: PMC5679017

Sequences of proteins named here, by UniProt entry; tags and fusion partners are left off. A change or cut given only in a name is not applied to a line headed by its entry.
UniProt P56450, whole entry: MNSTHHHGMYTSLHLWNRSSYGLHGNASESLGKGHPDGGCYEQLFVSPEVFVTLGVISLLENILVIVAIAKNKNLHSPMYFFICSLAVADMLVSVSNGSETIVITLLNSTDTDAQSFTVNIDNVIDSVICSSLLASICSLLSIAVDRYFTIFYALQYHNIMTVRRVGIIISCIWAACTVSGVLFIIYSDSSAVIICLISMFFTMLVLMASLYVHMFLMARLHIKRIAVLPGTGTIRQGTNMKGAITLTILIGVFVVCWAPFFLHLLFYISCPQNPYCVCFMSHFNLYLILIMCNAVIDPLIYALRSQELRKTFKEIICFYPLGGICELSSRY
UniProt Q01727: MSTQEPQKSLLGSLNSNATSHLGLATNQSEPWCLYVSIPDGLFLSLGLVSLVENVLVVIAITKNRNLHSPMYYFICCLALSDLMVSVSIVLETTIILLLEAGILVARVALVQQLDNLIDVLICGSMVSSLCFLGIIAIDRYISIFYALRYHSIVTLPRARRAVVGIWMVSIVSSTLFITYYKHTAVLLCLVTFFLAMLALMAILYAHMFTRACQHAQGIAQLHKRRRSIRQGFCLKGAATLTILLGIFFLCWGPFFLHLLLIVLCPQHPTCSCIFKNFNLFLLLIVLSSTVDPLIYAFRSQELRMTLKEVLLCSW

Columns and labels:
[1] = molecular target: mouse melanocortin-4 receptor (mouse) (UniProt P56450); test: radioligand binding
[2] = molecular target: mouse melanocortin-1 receptor (mouse) (UniProt Q01727); test: radioligand binding

- IC50 [1]: 214 nM
- IC50 [2]: 388 nM
Substance: Ac-His-DPhe-Arg-Trp-NH2 (peptide)
